Measured values as given in patent publication US20030215462A1, “Use of UGT inhibitors to increase bioavailability” (priority 2001, published 2003).

Biological target: T1, UGT1A3 (Homo sapiens, UniProt P35503)
T1 sequence (P35503 29-534): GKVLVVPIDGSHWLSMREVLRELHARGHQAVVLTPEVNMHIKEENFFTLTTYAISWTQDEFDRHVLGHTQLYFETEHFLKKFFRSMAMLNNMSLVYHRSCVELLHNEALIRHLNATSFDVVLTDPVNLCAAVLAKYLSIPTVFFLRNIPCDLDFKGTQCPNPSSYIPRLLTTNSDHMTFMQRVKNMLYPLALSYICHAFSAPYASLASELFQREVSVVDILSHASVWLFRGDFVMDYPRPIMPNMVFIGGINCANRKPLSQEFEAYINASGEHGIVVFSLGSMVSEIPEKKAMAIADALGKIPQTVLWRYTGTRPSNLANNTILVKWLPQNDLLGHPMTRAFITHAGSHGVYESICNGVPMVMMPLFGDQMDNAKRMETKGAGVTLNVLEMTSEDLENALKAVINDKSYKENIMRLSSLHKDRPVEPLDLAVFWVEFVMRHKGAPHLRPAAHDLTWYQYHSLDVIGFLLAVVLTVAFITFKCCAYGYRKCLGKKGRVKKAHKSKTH
Test: Substrate glucuronidation by recombinant UGT1A3

**Q.** How did the “2ME2 metabolic activity as % of the activity of UGT1A10” value (UGT1A3) turn out when `COc1cc2c(cc1O)CC[C@@H]1[C@@H]2CC[C@]2(C)[C@@H](O)CC[C@@H]12` [2ME2, 2-Methoxyestradiol] was run?
**A.** Its value is “less than 10%”.

**Q.** What about the “ratio MG1/MG2” value (UGT1A3 Supersomes, 2ME2 50 μM) of the same molecule?
**A.** Its value is 10.6.

**Q.** And the “relative metabolite level MG1” value (UGT1A3 Supersomes, 2ME2 50 μM)?
**A.** Its value is 18 ± 1.

**Q.** What about the “relative metabolite level MG2” value (UGT1A3 Supersomes, 2ME2 50 μM) of the same molecule?
**A.** Its value is 1.7 ± 0.1.
